# From paper PMC12102759 (Protein Science : A Publication of the Protein Society, 2025)
# Test system: AP2M1 MU
# Assay type: binding, human
Substance,PSSM value of the substitution (DMS by phage display),"PSSM value of the substitution, averaged over the two overlapping peptides"
QVVSDIDYVPLKSATA Y8T (QVVSDIDTVPLKSATA),0,–
QVVSDIDYVPLKSATA Y8V (QVVSDIDVVPLKSATA),0,–
QVVSDIDYVPLKSATA Y8W (QVVSDIDWVPLKSATA),0,–
QVVSDIDYVPLKSATA Y8Y,1,–
VSDIDYVPLKSATA(averaged) A12A,–,0.005606
VSDIDYVPLKSATA(averaged) A12D (VSDIDYVPLKSDTA),–,0.0157
VSDIDYVPLKSATA(averaged) A12E (VSDIDYVPLKSETA),–,0.1118
VSDIDYVPLKSATA(averaged) A12F (VSDIDYVPLKSFTA),–,0.01804
VSDIDYVPLKSATA(averaged) A12G (VSDIDYVPLKSGTA),–,0
VSDIDYVPLKSATA(averaged) A12H (VSDIDYVPLKSHTA),–,0.001905
VSDIDYVPLKSATA(averaged) A12I (VSDIDYVPLKSITA),–,0.2462
VSDIDYVPLKSATA(averaged) A12K (VSDIDYVPLKSKTA),–,0
VSDIDYVPLKSATA(averaged) A12L (VSDIDYVPLKSLTA),–,0.1234
VSDIDYVPLKSATA(averaged) A12M (VSDIDYVPLKSMTA),–,0.04037
VSDIDYVPLKSATA(averaged) A12N (VSDIDYVPLKSNTA),–,0.1766
VSDIDYVPLKSATA(averaged) A12P (VSDIDYVPLKSPTA),–,0.0004826
VSDIDYVPLKSATA(averaged) A12Q (VSDIDYVPLKSQTA),–,0

Substance,PSSM value of the substitution (DMS by phage display),"PSSM value of the substitution, averaged over the two overlapping peptides"
VSDIDYVPLKSATA(averaged) A12R (VSDIDYVPLKSRTA),–,0
VSDIDYVPLKSATA(averaged) A12S (VSDIDYVPLKSSTA),–,0.1444
VSDIDYVPLKSATA(averaged) A12T (VSDIDYVPLKSTTA),–,0.05432
VSDIDYVPLKSATA(averaged) A12V (VSDIDYVPLKSVTA),–,0.001806
VSDIDYVPLKSATA(averaged) A12W (VSDIDYVPLKSWTA),–,0.05944
VSDIDYVPLKSATA(averaged) A12Y (VSDIDYVPLKSYTA),–,0
VSDIDYVPLKSATA(averaged) A14A,–,0.003685
VSDIDYVPLKSATA(averaged) A14D (VSDIDYVPLKSATD),–,0.006127
VSDIDYVPLKSATA(averaged) A14E (VSDIDYVPLKSATE),–,0
VSDIDYVPLKSATA(averaged) A14F (VSDIDYVPLKSATF),–,0.01452
VSDIDYVPLKSATA(averaged) A14G (VSDIDYVPLKSATG),–,0.02521
VSDIDYVPLKSATA(averaged) A14H (VSDIDYVPLKSATH),–,0.003462
VSDIDYVPLKSATA(averaged) A14I (VSDIDYVPLKSATI),–,0.000644
VSDIDYVPLKSATA(averaged) A14K (VSDIDYVPLKSATK),–,0
VSDIDYVPLKSATA(averaged) A14L (VSDIDYVPLKSATL),–,0.01346
VSDIDYVPLKSATA(averaged) A14M (VSDIDYVPLKSATM),–,0
